The chains behind the UniProt entries cited, without tags or fusion partners. Where a name states a change or a piece, a line headed by the entry shows the natural chain unless it says otherwise.
UniProt Q6P5E4: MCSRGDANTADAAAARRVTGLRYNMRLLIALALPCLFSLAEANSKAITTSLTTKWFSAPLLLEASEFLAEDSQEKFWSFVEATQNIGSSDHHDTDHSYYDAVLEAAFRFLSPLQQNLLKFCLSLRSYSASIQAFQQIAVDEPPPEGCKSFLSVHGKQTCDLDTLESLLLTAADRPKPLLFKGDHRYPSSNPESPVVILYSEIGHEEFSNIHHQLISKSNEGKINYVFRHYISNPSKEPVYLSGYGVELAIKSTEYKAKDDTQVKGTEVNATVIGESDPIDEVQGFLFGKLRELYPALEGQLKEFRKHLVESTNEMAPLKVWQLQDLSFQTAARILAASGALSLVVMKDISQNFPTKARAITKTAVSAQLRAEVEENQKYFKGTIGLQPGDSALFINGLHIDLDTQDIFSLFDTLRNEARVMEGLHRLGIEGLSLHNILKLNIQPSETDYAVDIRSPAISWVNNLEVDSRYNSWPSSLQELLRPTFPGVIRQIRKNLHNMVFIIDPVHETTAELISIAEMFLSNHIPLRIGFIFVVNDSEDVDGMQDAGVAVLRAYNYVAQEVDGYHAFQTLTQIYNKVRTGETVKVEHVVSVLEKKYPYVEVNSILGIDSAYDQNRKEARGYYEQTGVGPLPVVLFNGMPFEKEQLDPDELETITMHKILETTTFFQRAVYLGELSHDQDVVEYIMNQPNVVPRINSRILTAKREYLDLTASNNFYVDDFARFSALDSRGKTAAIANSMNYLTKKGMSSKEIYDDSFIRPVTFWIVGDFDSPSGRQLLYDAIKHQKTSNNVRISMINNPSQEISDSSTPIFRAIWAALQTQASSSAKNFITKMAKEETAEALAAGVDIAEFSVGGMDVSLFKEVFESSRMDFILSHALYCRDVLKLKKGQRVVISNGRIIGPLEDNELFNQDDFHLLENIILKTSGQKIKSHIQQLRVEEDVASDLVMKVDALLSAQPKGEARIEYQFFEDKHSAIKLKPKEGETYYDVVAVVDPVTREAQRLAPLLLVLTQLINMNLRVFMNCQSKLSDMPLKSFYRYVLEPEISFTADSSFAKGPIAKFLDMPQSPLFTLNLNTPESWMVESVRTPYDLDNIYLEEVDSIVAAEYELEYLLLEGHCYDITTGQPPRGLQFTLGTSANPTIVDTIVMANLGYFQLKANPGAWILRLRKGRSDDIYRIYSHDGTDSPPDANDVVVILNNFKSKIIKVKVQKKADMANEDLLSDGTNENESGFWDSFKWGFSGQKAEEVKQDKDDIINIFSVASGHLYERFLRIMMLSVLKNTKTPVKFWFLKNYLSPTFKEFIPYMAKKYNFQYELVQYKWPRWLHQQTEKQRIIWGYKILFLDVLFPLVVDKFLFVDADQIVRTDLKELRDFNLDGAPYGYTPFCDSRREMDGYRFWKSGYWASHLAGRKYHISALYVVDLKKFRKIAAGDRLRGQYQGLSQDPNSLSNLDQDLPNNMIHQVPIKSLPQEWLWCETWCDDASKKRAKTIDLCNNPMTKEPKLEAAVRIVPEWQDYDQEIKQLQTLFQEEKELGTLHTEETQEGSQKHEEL

According to US9109043B2 (Tokyo Institute of Technology, priority 2010, dated 2015):

Columns and labels:
[1] = system: NIT-1 cells in which insulin secretion regulation factor was forcibly expressed; experiment: Insulin secretion by NIT-1 cells with forced expression of insulin secretion regulation factor (ELISA); type: cell-based, mouse; details: for amount of insulin secreted: FIG. 6C
[2] = target: insulin secretion regulation factor (ATIS1) (Mus musculus, UniProt Q6P5E4); experiment: Release of radiolabelled ATIS1 from insulin-immobilized agarose by test substance; type: binding
[3] = system: wild type B6 mice; experiment: Blood insulin and glucose after sBac administration in wild type B6 mice; details: FIG. 7A
[4] = system: wild type B6 mice; experiment: Continuous sBac administration for 4 weeks in wild type B6 mice: body weight and pancreas
[5] = mice after 12 hours of fasting, relative to vehicle
[6] = mice immediately after food re-intake

In the case of baccharin, the “promotion of insulin secretion” value ([1]; 10 mM substance, cultured 10 minutes, FIG. 6A) is reported as “highly promote insulin secretion”, the “amount of insulin secreted” value ([1]; glucose 2.8 mM in medium, highest concentration of sBac) is reported as “insulin secretion promotion was noted” and the “amount of insulin secreted” value ([1]; glucose 2.8 mM in medium, lower concentration of sBac) is reported as “no changes in the amount of insulin secreted were observed”. For the same substance, the “amount of insulin secreted” value ([1]; glucose 22.2 mM in medium, highest concentration of sBac) was “insulin secretion was significantly promoted”, the “amount of insulin secreted” value ([1]; glucose 22.2 mM in medium, low concentration of sBac) was “almost no changes in insulin secretion were noted” and the “competition with insulin for insulin secretion regulation factor” value ([2]; autoradiography, FIG. 6B) was “competes with insulin”. The “shading of the band of ATIS1 (interaction with ATIS1)” value ([2]; silver staining, FIG. 6D) was “changed depending on the amount of sBac added”, the blood glucose concentration [3, 5] was “no changes” and the blood insulin concentration [3, 5] was “no changes”. For the same substance, the blood glucose concentration [3, 6] was “blood glucose concentration correspondingly decreased”, the blood insulin concentration [3, 6] was “increased blood insulin concentration depending on the sBac concentration” and the “size of pancreatic β cells” value ([4]; 85 and 850 nmol/30 g body weight, day 28, FIG. 7C) was “No changes in the size of pancreatic β cells”. The “ratio of the Langerhans cells relative to the pancreas” value ([4]; 85 and 850 nmol/30 g body weight, day 28, FIG. 7D) was “no changes in the ratio” and the “changes in body weight with time” value ([4]; 85 or 850 nmol/30 g body weight, 4 weeks (28 days), vs vehicle, FIG. 7B) was “no mice that received sBac exhibited changes in body weight”.
